{
  "source": "patent US9364554B2",
  "about": "“Extracellular targeted drug conjugates” (priority 2009, dated 2016)",
  "tested_on": "A549 cells",
  "assay": "In vitro cell proliferation assay, Example 4 (CellTiter-Glo, 2 days)",
  "format": "cell-based, human",
  "conditions": "within the testing concentration range; antibodies alone = reduced antibody with linker, no agent",
  "description": "In vitro cell proliferation assays. EDCs of the invention and comparative compounds were assayed in three cancer cell lines to confirm cytotoxic activity. All cell lines were maintained in complete media [RPMI medium 1640 supplemented with 10% (wt/vol) fetal bovine serum and Gentamycin ([…])]. Cells were plated at a density of 5,000 cells per well of each 96-well black tissue culture treated microtiter plate in 95 ul complete media, then were grown for 24 hour at 37° C. with 7% CO2 in a humidified incubator before agent/conjugate addition. In a separate 96-well plate, agent (in DMSO) and antibody conjugate (in PBS) stocks were serially diluted in complete media at 20× final working concentrations, and 5 ul added to the cells used in the assay. Doxorubicin was used as the control to monitor the behavior of the cell lines used. Cells were incubated with the agent/conjugate for 2 days before luminescence reading. Cell viability testing used the CellTiter-Glo luminescent cell viability assay (Promega, Madison, Wis.).",
  "data": [
    {"substance": "Erb-CEN09-104", "values": [
      {"measurement": "A549 cell cytotoxicity (in words)", "value": "not active"}
    ]}
  ]
}
